Assay results published in patent US6391870B2, “Pyrrolo [2,1-b][1,3]benzothiazepines with atypical antipsychotic activity” (Sigma-Tau Industrie Farmaceutiche Riunite S.p.A., priority 1998, dated 2002).

The chains behind the UniProt entries cited, without tags or fusion partners.
UniProt P14842, whole entry: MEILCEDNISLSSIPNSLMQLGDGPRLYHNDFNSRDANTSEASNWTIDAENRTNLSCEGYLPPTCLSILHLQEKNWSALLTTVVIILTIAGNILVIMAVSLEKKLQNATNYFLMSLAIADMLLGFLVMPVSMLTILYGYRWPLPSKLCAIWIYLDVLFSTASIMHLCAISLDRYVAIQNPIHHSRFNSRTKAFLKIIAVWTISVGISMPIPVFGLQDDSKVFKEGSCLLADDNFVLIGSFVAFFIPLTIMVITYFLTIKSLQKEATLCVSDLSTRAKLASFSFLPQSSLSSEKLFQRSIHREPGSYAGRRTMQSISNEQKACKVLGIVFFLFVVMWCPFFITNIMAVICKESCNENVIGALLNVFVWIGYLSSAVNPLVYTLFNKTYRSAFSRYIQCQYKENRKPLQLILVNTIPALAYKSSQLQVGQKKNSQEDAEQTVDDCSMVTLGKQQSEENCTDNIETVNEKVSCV
UniProt P18901, whole entry: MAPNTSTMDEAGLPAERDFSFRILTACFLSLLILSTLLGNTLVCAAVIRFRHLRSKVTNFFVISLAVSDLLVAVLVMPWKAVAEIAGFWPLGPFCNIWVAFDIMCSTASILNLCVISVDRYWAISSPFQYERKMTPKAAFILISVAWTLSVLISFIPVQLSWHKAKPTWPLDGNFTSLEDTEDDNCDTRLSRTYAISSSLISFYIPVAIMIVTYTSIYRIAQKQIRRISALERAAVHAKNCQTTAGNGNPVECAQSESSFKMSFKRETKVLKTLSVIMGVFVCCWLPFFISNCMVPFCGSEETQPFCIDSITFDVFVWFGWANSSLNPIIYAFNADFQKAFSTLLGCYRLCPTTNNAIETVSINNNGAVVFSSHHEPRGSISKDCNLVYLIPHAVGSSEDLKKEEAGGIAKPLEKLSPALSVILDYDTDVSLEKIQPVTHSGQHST

Columns and labels:
5-HT2A receptors = 5-HT2A receptors (Rattus norvegicus, UniProt P14842); test: [3H]Ketanserin binding to 5-HT2A receptors (rat cortex); conditions: read-out: 5HT2A affinity Ki
DA-1 receptors = molecular target: T1, DA-1 receptors (Rattus norvegicus, UniProt P18901); test: [3H]SCH 23390 binding to DA-1 receptors (rat striatum); conditions: for Ki: read-out: D1 affinity Ki
T1 construct: striatum for DA-1 and DA-2 receptors; from tissue; host or cells: rat striatum membranes

## CN1CCN(C2Cn3cccc3Sc3ccc(F)cc32)CC1 (racemic) [ST1456, (±)-7-fluoro-9-(4-methylpiperazin-1-yl)-9,10-dihydropyrrolo[2,1-b][1,3]benzothiazepine]
5-HT2A receptors
  Ki: 5.1 nM

## CN1CCN(C2Cn3cccc3Sc3ccc(Cl)cc32)CC1 (single isomer, unassigned) [ST1461]
DA-1 receptors; rat striatum
  D1 pKi: 7.66
DA-1 receptors; rat striatum, [3H]SCH 23390, average ± standard error
  Ki: 22 ± 1.3 nM

## CN1CCN(C2Cn3cccc3Sc3ccc(Cl)cc32)CC1 (single isomer, unassigned; (+)) [ST1460, (+)-7-chloro-9-(4-methylpiperazin-1-yl)-9,10-dihydropyrrolo[2,1-b][1,3]benzothiazepine]
DA-1 receptors
  Ki: 16.4 ± 1 nM

## CN1CCN(C2Cn3cccc3Sc3ccc(Cl)cc32)CC1 (racemic) [ST1455, (±)-7-chloro-9-(4-methylpiperazin-1-yl)-9,10-dihydropyrrolo[2,1-b][1,3]benzothiazepine]
DA-1 receptors
  Ki: 27 ± 10 nM

Read-outs that look alike come from different tables or passages of the source.
